The target in the assay is Carbonic anhydrase 2 (Homo sapiens, UniProt P00918).

For one compound, Ki results are on record in ChEMBL document CHEMBL1143479.

The term Ki denotes the dissociation constant of the complex between target and ligand, obtained from inhibition or displacement. High values mean weaker binding, low ones tighter binding. In turn, `NS(=O)(=O)c1cccc(NC(=O)Nc2ccccc2)c1` returned a Ki of 150 nM.
